Ki data for one molecule are collected here from ChEMBL document CHEMBL1125598, “HIV protease: a novel chemotherapeutic target for AIDS” (J Med Chem, 1991).

pKi: −log10 of the molar value.

In this assay the target is Human immunodeficiency virus type 1 protease (Human immunodeficiency virus 1, UniProt Q72874). The experiment in a line: Binding affinity for HIV-1 protease.

As usually defined, the pKi is −log10 of the Ki, conventionally taken in molar units. Read a high pKi as a small Ki. `O=C(CCCN1CCC(O)(c2ccc(Cl)cc2)CC1)c1ccc(F)cc1` [HALOPERIDOL] gave a pKi of 7.00.
